Experimental data reported in ChEMBL document CHEMBL1138042, “2-[(4-phenylpiperazin-1-yl)methyl]imidazo(di)azines as selective D4-ligands. Induction of penile erection by 2-[4-(2-methoxyphenyl)piperazin-1-ylmethyl]imidazo[1,2-a]pyridine (PIP3EA), a potent and selective D4 partial agonist” (J Med Chem, 2006).

Protein sequences, listed by entry. Tags and fused reporters are not part of them.
UniProt P14416, whole entry, looked up: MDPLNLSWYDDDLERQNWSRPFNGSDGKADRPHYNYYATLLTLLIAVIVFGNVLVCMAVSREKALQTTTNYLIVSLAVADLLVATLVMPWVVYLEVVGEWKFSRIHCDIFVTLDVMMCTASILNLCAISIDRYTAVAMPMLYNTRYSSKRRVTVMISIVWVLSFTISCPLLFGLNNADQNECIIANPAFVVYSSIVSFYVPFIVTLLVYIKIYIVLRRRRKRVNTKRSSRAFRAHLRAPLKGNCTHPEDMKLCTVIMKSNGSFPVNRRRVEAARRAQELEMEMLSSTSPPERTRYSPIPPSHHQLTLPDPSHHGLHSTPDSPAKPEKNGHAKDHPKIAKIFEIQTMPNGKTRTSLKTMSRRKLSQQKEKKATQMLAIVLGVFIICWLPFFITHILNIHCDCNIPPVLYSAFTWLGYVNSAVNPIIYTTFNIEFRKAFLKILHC
UniProt P21917, whole entry, looked up: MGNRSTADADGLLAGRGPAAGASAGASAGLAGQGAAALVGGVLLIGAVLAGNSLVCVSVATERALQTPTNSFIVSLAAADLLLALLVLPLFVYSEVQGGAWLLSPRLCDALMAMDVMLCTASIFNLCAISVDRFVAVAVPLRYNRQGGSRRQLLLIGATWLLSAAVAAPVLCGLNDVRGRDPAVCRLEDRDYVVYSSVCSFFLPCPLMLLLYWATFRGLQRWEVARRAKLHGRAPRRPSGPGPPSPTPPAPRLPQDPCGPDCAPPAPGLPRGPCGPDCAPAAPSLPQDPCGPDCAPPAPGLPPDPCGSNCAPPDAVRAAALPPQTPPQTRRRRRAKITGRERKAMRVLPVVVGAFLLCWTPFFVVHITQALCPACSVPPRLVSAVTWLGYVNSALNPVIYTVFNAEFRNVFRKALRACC

Target: Dopamine receptors; D2 & D4 (Homo sapiens) (UniProt P14416+P21917)
Test: Selectivity for human dopamine D4 receptor over dopamine D2(short) receptor
Assay type: protein assay

Selectivity ratio | SMILES
300 | COc1ccccc1N1CCN(Cc2cn3c(-n4cccn4)cccc3n2)CC1
33 | COc1ccccc1N1CCN(Cc2cn3cc(C)cc(-c4ccccc4)c3n2)CC1
